Target: CYP1A2 (Homo sapiens, UniProt P05177)
Assay type: in vitro ADME
Settings: α-naphthoflavone 6 μM (CYP1A2 inhibitor), human liver microsomes

Amino acid sequences for entries named in this document (tags omitted).
UniProt P05177, whole entry: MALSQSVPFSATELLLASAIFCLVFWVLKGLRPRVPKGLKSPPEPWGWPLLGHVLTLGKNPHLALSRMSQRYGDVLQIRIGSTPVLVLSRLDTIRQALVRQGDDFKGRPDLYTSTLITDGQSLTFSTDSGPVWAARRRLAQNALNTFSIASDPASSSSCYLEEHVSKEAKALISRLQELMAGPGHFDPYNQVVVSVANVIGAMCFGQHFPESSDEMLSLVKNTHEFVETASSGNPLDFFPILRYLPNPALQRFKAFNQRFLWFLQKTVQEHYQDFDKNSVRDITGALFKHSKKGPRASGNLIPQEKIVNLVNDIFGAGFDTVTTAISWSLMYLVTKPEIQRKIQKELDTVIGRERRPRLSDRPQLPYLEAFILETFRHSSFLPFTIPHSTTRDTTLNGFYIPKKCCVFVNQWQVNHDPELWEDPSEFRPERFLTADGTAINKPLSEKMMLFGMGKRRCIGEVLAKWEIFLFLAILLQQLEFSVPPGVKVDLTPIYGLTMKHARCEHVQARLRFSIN

## O=c1cc(-c2ccccc2)oc2c1ccc1ccccc12 [α-naphthoflavone, α-Naphthoflavone]
  effect on the formation of M1, M3, and M5: did not show significant effect
